Drawing on US20230149555A1, “MEDICAMENT FOR KILLING TUMOR CELLS” (PhotoQ3 Inc., priority 2020, published 2023), this text covers EC50 and cytotoxic effects for 1 substance.

Where two headings read alike, the source gives them in different places.

Data set [1] has as its system MCF7 (human breast cancer cells), low EGFR-expressing cell line. The experiment in a line: Cytotoxicity assay of using aluminum phthalocyanine to MCF7 cells (CCK-8). It counts as cell-based.
For data set [2] the test system is unchanged. The settings on record: read-out: EC50 (IT-Cetuximab concentration showing 50% viability), IT-Cetuximab + 20 μM Talaporfin Sodium + light irradiation (650 nm, 37.6 mJ/cm^2), 72 hours culture.

With “IT-Cetuximab: biotinylated Cetuximab (anti-EGFR antibody) equivalently mixed with streptavidin-saporin to obtain saporin-bound Cetuximab”, the EC50 in data set [1] (IT-Cetuximab + 1 μM AlPcS2a + light irradiation (650 nm, 18.8 mJ/cm^2), 72 hours culture, read-out: EC50 (IT-Cetuximab concentration showing 50% viability)) was 0.29 nM; in data set [2], 0.61 nM. Further, in data set [1] (immunotoxin alone at 20 nM, no photosensitizing dye, no light), the cytotoxic effects result is recorded as “no cytotoxic effects could be obtained”.
